# High-throughput results as filed in PubChem BioAssay.
# Most compounds without a hit are left out; they make up all but 1.3% or so of the library.
# miR-21 reporter = miR-21 reporter, rising signal; Potency, µM (top dose mostly 38.3 µM), for the others: at the highest dose reporter change, positive = more light; 340,000 tested, under 10 active; HeLa miR-21 FLuc reporter, luciferase, 48 h; active = well fitted rising curve with a large enough effect; inconclusive = small, poorly fitted or top-dose-only effect; inactive = no such curve, though single readings can be large or run the other way;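 note: % of control where 0% means no effect; miR-21 action dims this reporter so a rising signal means less miR-21 action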
#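 HeLa cells stably expressing CMV-driven firefly luciferase with a downstream miR-21 binding sequence, endogenously expressing miR-21, were treated with titrations (up to about 40uM final) for 48 hours at 37 degree Celsius. Luciferase luminescence was read after lysis.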
# Giardia killer = kills Giardia lamblia | Giardia lamblia trophozoite viability | activity change, % at 7.66 µM, hits read low | hit rate 0.15% among 340,000; in the data active = activity change below about -80%; inconclusive = between about -30% and that limit;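 also: parasites exposed to compound for two days anaerobically before the ATP read; % is scaled to controls: 0 for no effect and ±100 for the full control effect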
#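 Each well holds 100 Giardia trophozoites and compound. After two days (48 hrs) at 37 deg C in anaerobic conditions, ATP is quantified by luminescence.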
# PTHR1 agonist = PTHR1 (human) receptor agonism; HEK293 GP2 PTHR1 cells, GloSensor cAMP luminescence, 1 h; Potency, µM (titrated, usually from 115 µM), for inactives: at the top dose activation, usual class: activators; hit rate 0.075% among 410,000; AID 743266; also: potency is read from the fitted curve at half-maximal effect; nearly all actives have a fitted effect of over 55% in size
#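 HEK-293-derived GP2 cells expressing PTHR1 and a GloSensor cAMP reporter, 3,000/well, plated overnight, given luciferin plus IBMX (each 0.5 mM as added) for 1 h at 37 °C, then compound for 1 h at 37 °C. Luminescence was read after 15 min at room temperature.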
# 12-LOX inh = ALOX12 (human) lipoxygenase inhibition. P18054. purified 12hLO, xylenol orange hydroperoxide absorbance. Potency, µM (doses to about 108 µM), for the others: at the top dose activity change, negative = inhibition, actives largely listed as inhibitors. hit rate 1.1% among 580,000; also: potency is read from the fitted curve at half-maximal effect; % is scaled to controls: 0 for no effect and ±100 for the full control effect
#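 Purified human 12hLO (150 nM final) in 25 mM Hepes, 0.01% Triton X-100, pH 7.0 was preincubated 15 min at room temperature with compound. Then 40 uM arachidonic acid was added, 30 min. Hydroperoxide was read by Fe-XO absorbance ratio 573/405 nm.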
# ERG-DNA inh = blocks human ERG Ets domain binding to DNA; fluorescence polarization, His-ERG Ets domain / labelled DNA; Potency, µM (top dose mostly 76.9 µM), without a hit: at the top dose FP activity, negative = inhibition, hits mostly inhibitors; hit rate 0.028% among 370,000; AID 624246; active = well fitted inhibition curve with a large enough effect in the polarisation, with a control signal flat; inconclusive = small, poorly fitted or top-dose-only effect, or effect the other way, or a change in a side signal; inactive = no such curve, though single readings can be large or run the other way; the % refers to the polarisation;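 also: polarization taken with two DNA probes labelled with fluorescein and Texas red; potency is read from the fitted curve at half-maximal effect; % of control where 0% means no effect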
#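 His-tagged ERG Ets domain (1 uM in the protein solution; 300mM KCl, 50mM Tris-HCl, 1mM EDTA, 1mM DTT, pH 7.5) received compound, then a probe mix of 5 nM fluorescein-DNA and 100nM Texas-615-DNA. Fluorescence polarization was read for both dyes.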
# PINK1 modulator = changes PINK1 expression | Potency, µM (titrated, usually from 76.6 µM), inactives show at the highest dose activation (PINK1 increase), most hits filed as activators | PINK1 immunofluorescence, high-content cytometry, 24 h | hit rate 0.2% among 410,000; active = well fitted activation curve with a large enough effect; inconclusive = small, poorly fitted or top-dose-only effect; cell line not stated here; also: potency is read from the fitted curve at half-maximal effect; % of control where 0% means no effect; nearly all actives have a fitted effect of over 65% in size
#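 Readout is PINK1 immunofluorescence, quantified alongside mitochondrial, cell and nuclear markers by laser-scanning microplate cytometry. Cells from a stable line were exposed to compound titrations (5 concentrations) for 24 hours, with CCCP controls.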
# Starred values were filed as active, the others as inactive; i = inactive; ? = inconclusive; nt = no result; [ ] = another dose, or the depositor's remark. Unless noted, calls follow the shape of the dose curve; as a rule, active = well fitted curve in the direction sought with a large enough effect; inconclusive = small, poorly fitted or top-dose-only effect, or another doubt; inactive = no such curve, though single readings can be large; an effect the other way counts as inactive or inconclusive.
SMILES,miR-21 reporter,Giardia killer,PTHR1 agonist,12-LOX inh,ERG-DNA inh,PINK1 modulator
Cc1nn(-c2ccc(N3CCCC3)nn2)c(C)c1CCC(=O)NCc1ccccc1,-10%,nt,i,-14%,0%,2%
COc1cc(/C=N/NC(=O)NC23CC4CC(CC(C4)C2)C3)ccc1O,-17%,13,-21%,?,5%,2%
c1ccc(COc2ccc(OCCn3cncn3)cc2)cc1,-44%,10,-64%[57.5 µM],22%,0%,-1%
c1ccc(-c2ccc(OCCCn3cncn3)cc2)cc1,-29%,-13,-31%[57.5 µM],1.4µM*,-2%,0%
Cc1cc(C)c(CNC(=O)c2cc(-c3ccnn3C)cc3c2OCCN3C)c(=O)[nH]1,nt,nt,nt,0%[176 µM],nt,nt
Cc1c(-c2ccc(O)cc2)nn(-c2ccc(O)cc2)c1-c1ccc(OCCN2CCCCC2)cc1,nt,nt,nt,20µM*,nt,nt
Cc1ccc(OCCN2CCCC2)cc1,-2%,-1,-13%,-14%,9%,1%
CCC(C)NC(=O)c1ccccc1NC(=O)C1CCN(S(=O)(=O)Cc2ccccc2)CC1 (stereo not given),0%,nt,-24%,-9%,5%,0%
CC(C)c1ccc(NC(=O)CSC2=Nc3ccccc3C3=NC(CC(=O)NCc4cccs4)C(=O)N23)cc1 (stereo not given),-7%,nt,22%,-30%,0%,0%
COCCSc1ccccc1C(=O)Nc1ccc2c(c1)OCO2,-12%,18,-5%,-16%,3%,1%
COCCSc1ccccc1C(=O)Nc1ccc(Cl)cc1,-17%,-15,i,18µM*,16%,2%
COCCSc1ccccc1C(=O)Nc1ccc(Br)cc1,-16%,42,-12%,35µM*,-18%,3%

# Five entries from above in a different format:
SMILES	miR-21 reporter	Giardia killer	PTHR1 agonist	12-LOX inh	ERG-DNA inh	PINK1 modulator
CCC(C)NC(=O)c1ccccc1NC(=O)C1CCN(S(=O)(=O)Cc2ccccc2)CC1 (stereo not given)	0%	nt	-24%	-9%	5%	0%
CC(C)c1ccc(NC(=O)CSC2=Nc3ccccc3C3=NC(CC(=O)NCc4cccs4)C(=O)N23)cc1 (stereo not given)	-7%	nt	22%	-30%	0%	0%
COCCSc1ccccc1C(=O)Nc1ccc2c(c1)OCO2	-12%	18	-5%	-16%	3%	1%
COCCSc1ccccc1C(=O)Nc1ccc(Cl)cc1	-17%	-15	i	18µM*	16%	2%
COCCSc1ccccc1C(=O)Nc1ccc(Br)cc1	-16%	42	-12%	35µM*	-18%	3%

# (more compounds)
SMILES,miR-21 reporter,Giardia killer,PTHR1 agonist,12-LOX inh,ERG-DNA inh,PINK1 modulator
COCCSc1ccccc1C(=O)Nc1cccnc1,-4%,-18,i,22µM*,-2%,1%
O=S(=O)(c1ccccc1)N(CC(O)COc1ccccc1)c1ccccc1 (stereo not given),13%,-8,i,-3%,-5%,3%
C=C(C)Cn1c(N2CCC(C(N)=O)CC2)nc2c1c(=O)n(C)c(=O)n2C,nt,nt,nt,-3%,nt,nt
COc1ccccc1CNc1ncncc1-c1ccoc1,nt,nt,nt,?,nt,0%
c1ccc(Nc2ncncc2-c2ccoc2)cc1,nt,nt,nt,18µM*,nt,-1%
COc1ccccc1-c1cncnc1Nc1ccccc1,nt,nt,nt,40µM*,nt,-1%
Fc1ccc(Nc2ncncc2-c2ccoc2)cc1,nt,nt,nt,40µM*,nt,0%
COc1ccc(CNC(=O)C(NS(=O)(=O)c2ccc3c(c2)CCCN3C(C)=O)C(C)C)cc1 (stereo not given),-4%,29,i,-22%,5%,-4%[38.3 µM]
CN(C)C(CNC(=O)c1ccc(S(=O)(=O)N(C)C)cc1)Cc1ccccc1 (stereo not given),-2%,-23,i,0%,2%,2%
Cc1nc(N2CCc3ccccc3C2)[nH]c(=O)c1CCC(C)C,-1%,-10,i,-15%,-10%,11µM*
CC(C)NS(=O)(=O)c1ccc(Cl)c(C(=O)NCc2ccc(-c3nc4ccccc4s3)o2)c1,nt,nt,nt,16µM*,nt,nt
CC(NS(=O)(=O)c1cccc(Cl)c1)C(=O)Nc1ccc(-c2nc3ccccc3s2)cc1 (stereo not given),-28%,7,-17%,0%,0%,15%
COCCCNC(=O)c1[nH]c2ccccc2c1Sc1ccc(C)cc1,-18%,nt,-31%,4%,4%,2%
Cc1ccc(N(CC(=O)Nc2c(C)n(C)n(-c3ccccc3)c2=O)S(C)(=O)=O)c(C)c1,-1%,-10,-7%,-14%,-11%,-1%
NC(=S)N/N=C\c1c(OCc2ccccc2Cl)ccc2ccccc12,21%,25,-16%,22µM*,16%,1%
Cc1cccc(NC(=O)C2CCN(S(=O)(=O)c3c(C)noc3C)CC2)c1,0%,6,i,-2%,0%,0%
